{"source": "ChEMBL document CHEMBL1139534", "about": "“Inhibition of herpes simplex virus thymidine kinases by 2-phenylamino-6-oxopurines and related compounds: structure-activity relationships and antiherpetic activity in vivo” (J Med Chem, 2005)", "target": "T1, Thymidine kinase (Human herpesvirus 2, UniProt Q6L709)", "T1 sequence (Q6L709 whole entry)": "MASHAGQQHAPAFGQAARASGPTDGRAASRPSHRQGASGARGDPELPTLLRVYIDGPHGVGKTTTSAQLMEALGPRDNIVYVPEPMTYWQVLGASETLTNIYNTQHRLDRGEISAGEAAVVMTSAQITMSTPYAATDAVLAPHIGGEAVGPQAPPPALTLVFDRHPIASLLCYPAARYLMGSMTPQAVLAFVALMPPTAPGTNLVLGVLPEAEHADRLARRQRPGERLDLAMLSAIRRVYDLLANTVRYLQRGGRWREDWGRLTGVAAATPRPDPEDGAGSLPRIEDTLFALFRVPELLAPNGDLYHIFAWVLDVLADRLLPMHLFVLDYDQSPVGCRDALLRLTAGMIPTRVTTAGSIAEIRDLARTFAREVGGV", "test": "Inhibitory concentration against herpes simplex virus type 2 thymidine kinase", "set-up": "species or system Human alphaherpesvirus 2", "in_short": "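Recombinant His-tagged HSV-2 TK expressed in E. coli, Ni-NTA purified. Products captured on DEAE paper and counted by scintillation. Inhibitor diluted from DMSO stocks, at least five concentrations in duplicate; IC50 is the concentration halving activity.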"}
{"molecule": "O=c1[nH]c(Nc2ccccc2)nc2c1ncn2CCO", "values": [{"measurement": "IC50", "value": 2.2, "unit": "µM"}]}
